Values of other authors, collected in patent US9039924B2 (priority 2010, dated 2015).

Tested on: rat
Conditions: in vivo; for LD50 values below 1000 or toxic: po

ammonium nitrite [NH4NO2]
LD50 (oral-rat; mg/kg): 57 mg/kg | LD50 values below 1000 or toxic: below 1000

rubidium nitrate [RbNO3]
LD50 (oral-rat; mg/kg): 4625 mg/kg

silver nitrate [AgNO3]
LD50 values below 1000 or toxic: toxic
